Results published in patent publication US8921397B2, “Benzofurane-piperidine compounds” (Hoffmann-La Roche Inc., priority 2011, dated 2014).

Sequences of proteins named here, by UniProt entry; tags and fusion partners are left off.
UniProt P35462, whole entry: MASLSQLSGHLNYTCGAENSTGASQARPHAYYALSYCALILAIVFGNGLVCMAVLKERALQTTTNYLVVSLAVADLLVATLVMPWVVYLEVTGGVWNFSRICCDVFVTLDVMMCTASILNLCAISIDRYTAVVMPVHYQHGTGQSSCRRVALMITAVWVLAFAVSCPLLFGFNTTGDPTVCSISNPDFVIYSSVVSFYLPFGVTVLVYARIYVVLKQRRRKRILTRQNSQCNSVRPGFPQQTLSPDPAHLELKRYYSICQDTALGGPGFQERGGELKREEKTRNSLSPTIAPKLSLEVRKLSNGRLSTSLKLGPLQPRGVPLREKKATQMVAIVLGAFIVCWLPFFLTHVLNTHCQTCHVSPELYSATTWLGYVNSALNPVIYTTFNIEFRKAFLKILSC
UniProt P14416, whole entry: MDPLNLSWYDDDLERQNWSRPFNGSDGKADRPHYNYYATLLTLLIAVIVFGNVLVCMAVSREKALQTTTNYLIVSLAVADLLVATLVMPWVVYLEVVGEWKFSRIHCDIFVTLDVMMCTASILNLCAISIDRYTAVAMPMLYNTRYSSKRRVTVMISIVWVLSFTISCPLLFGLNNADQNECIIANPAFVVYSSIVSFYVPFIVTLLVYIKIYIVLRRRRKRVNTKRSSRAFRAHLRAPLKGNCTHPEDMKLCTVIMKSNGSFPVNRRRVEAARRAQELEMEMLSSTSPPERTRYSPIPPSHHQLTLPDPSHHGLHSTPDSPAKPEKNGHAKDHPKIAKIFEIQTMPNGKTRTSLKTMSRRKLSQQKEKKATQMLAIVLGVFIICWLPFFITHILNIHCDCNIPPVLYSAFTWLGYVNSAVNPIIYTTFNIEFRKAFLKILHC

How the values were obtained:
human D3 receptor = human D3 receptor (Homo sapiens (Human), UniProt P35462); experiment: Radioligand binding ([3H]-spiperone) to human D3 receptor, HEK293 EBNA membranes; details: HEK293 EBNA cells expressing human D3 receptor
Method: (§1) The ability of the compounds to bind to the 5-HT2A, D3 and D2 receptors was determined using radioligand binding to cloned receptors selectively expressed in HEK-293 EBNA cells.
(§2) HEK293 EBNA cells were transiently transfected with expression plasmids encoding for the human D2 or D3 or for the human 5-HT2A receptor, respectively. The cells were harvested 48 h post-transfection, washed three times with cold PBS and stored at −80° C. prior to use. The pellet was suspended in cold 50 mM Tris-HCl buffer containing 10 mM EDTA (pH 7.4) and was homogenized with a Polytron (Kinematica AG, Basel, Switzerland) for 20-30 sec at 12.000 rpm. […] The protein content of this homogenate was determined with the Bio-Rad (Bradford) Protein Assay (Biorad Laboratories GmbH, München, Germany) according to the instructions of the manufacturer using gamma globulin as the standard. […]
(§3) The binding affinity (Ki) of the compounds was determined using radioligand binding.
(§4) Membranes were incubated in a total volume of 200 μl with a fixed concentration of radioligand (final concentration approximately 0.7 nM [^3H]-spiperone for D2, 0.5 nM [^3 H]-spiperone for D3, and 1.1 nM [^3H]-ketanserin for 5-HT2A) and ten concentrations of test compound in ranging between 10 μM-0.1 nM for 1 h at RT. […] The nonspecific binding was determined with equally composed reaction mixtures in the presence of 10 μM unlabelled spiperone. […]

human D2 receptor = human D2 receptor (Homo sapiens (Human), UniProt P14416); experiment: Radioligand binding ([3H]-spiperone) to human D2 receptor, HEK293 EBNA membranes; details: HEK293 EBNA cells expressing human D2 receptor
Method: as §1, §2, §3, §4

Q: With `O=C(N[C@H]1CC[C@H](CCN2CCC(c3coc4ccccc34)CC2)CC1)C1CCOC1` (mixture of isomers) [Example 17, (RS)-Tetrahydro-furan-3-carboxylic acid trans-{4-[2-(4-benzofuran-3-yl-piperidin-1-yl)-ethyl]-cyclohexyl}-amide] as the molecule, how does the Ki (human D3 receptor) read?
A: 2.22 nM

Q: With `O=C(CC1COCCO1)N[C@H]1CC[C@H](CCN2CCC(c3coc4ccccc34)CC2)CC1` (mixture of isomers) [Example 8, trans-N-{4-[2-(4-Benzofuran-3-yl-piperidin-1-yl)-ethyl]-cyclohexyl}-(RS)-2-[1,4]dioxan-2-yl-acetamide] as the molecule, how does the Ki (human D2 receptor) read?
A: 85.9 nM
